## Permeability data for macrocyclic peptides

Source: CycPeptMPDB (Li et al. 2023), which took these values from Kelly et al. 2021, doi:10.1021/jacs.0c06115.

PAMPA is the parallel artificial membrane permeability assay, which has no cells and reads passive diffusion.
Permeability is in 10^-6 cm/s, converted from the database's log10 values; higher is more permeable.

| compound | PAMPA (10^-6 cm/s) |
|---|---|
| CC(=O)N1CCC[C@@H]1C(=O)N(C)[C@H](CC(C)C)C(=O)N[C@@H]1C(=O)N[C@H](CC(C)C)C(=O)N(C)[C@@H](CC(C)C)C(=O)N[C@H](CC(C)C)C(=O)N(C)[C@H](C)C(=O)N[C@@H](CC(C)C)C(=O)N2CCC[C@@H]2C(=O)O[C@@H]1C | 2.5 |
| CC(=O)N1CCC[C@H]1C(=O)N(C)[C@H](CC(C)C)C(=O)N[C@@H]1C(=O)N[C@@H](CC(C)C)C(=O)N(C)[C@H](CC(C)C)C(=O)N(C)[C@@H](CC(C)C)C(=O)N(C)[C@@H](C)C(=O)N[C@H](CC(C)C)C(=O)N2CCC[C@H]2C(=O)O[C@@H]1C | 2.2 |
| CC(=O)N1CCC[C@H]1C(=O)N(C)[C@@H](CC(C)C)C(=O)N[C@@H]1C(=O)N[C@H](CC(C)C)C(=O)N(C)[C@@H](CC(C)C)C(=O)N(C)[C@H](CC(C)C)C(=O)N(C)[C@H](C)C(=O)N[C@@H](CC(C)C)C(=O)N2CCC[C@@H]2C(=O)O[C@@H]1C | 6.3 |
| CC(=O)N1CCC[C@H]1C(=O)N(C)[C@@H](CC(C)C)C(=O)N[C@@H]1C(=O)N[C@@H](CC(C)C)C(=O)N(C)[C@@H](CC(C)C)C(=O)N(C)[C@@H](CC(C)C)C(=O)N(C)[C@@H](C)C(=O)N[C@@H](CC(C)C)C(=O)N2CCC[C@H]2C(=O)O[C@@H]1C | 0.66 |
| CC(=O)N1CCC[C@H]1C(=O)N(C)[C@@H](CC(C)C)C(=O)N[C@@H]1C(=O)N[C@@H](CC(C)C)C(=O)N[C@@H](CC(C)C)C(=O)N[C@H](CC(C)C)C(=O)N[C@@H](C)C(=O)N[C@H](CC(C)C)C(=O)N2CCC[C@@H]2C(=O)O[C@@H]1C | 0.002 |
| CC(=O)N1CCC[C@@H]1C(=O)N(C)[C@@H](CC(C)C)C(=O)N[C@@H]1C(=O)N[C@@H](CC(C)C)C(=O)N[C@H](CC(C)C)C(=O)N(C)[C@H](CC(C)C)C(=O)N(C)[C@@H](C)C(=O)N[C@H](CC(C)C)C(=O)N2CCC[C@H]2C(=O)O[C@@H]1C | 1.3 |
| CC(=O)N1CCC[C@@H]1C(=O)N(C)[C@@H](CC(C)C)C(=O)N[C@@H]1C(=O)N(C)[C@H](CC(C)C)C(=O)N(C)[C@@H](CC(C)C)C(=O)N(C)[C@@H](CC(C)C)C(=O)N(C)[C@@H](C)C(=O)N[C@@H](CC(C)C)C(=O)N2CCC[C@H]2C(=O)O[C@@H]1C | 3.5 |
| CC(=O)N1CCC[C@H]1C(=O)N(C)[C@@H](CC(C)C)C(=O)N[C@@H]1C(=O)N[C@H](CC(C)C)C(=O)N[C@@H](CC(C)C)C(=O)N[C@H](CC(C)C)C(=O)N[C@H](C)C(=O)N[C@@H](CC(C)C)C(=O)N2CCC[C@H]2C(=O)O[C@@H]1C | 0.17 |
| CC(=O)N1CCC[C@@H]1C(=O)N(C)[C@H](CC(C)C)C(=O)N[C@@H]1C(=O)N[C@@H](CC(C)C)C(=O)N[C@@H](CC(C)C)C(=O)N(C)[C@@H](CC(C)C)C(=O)N[C@@H](C)C(=O)N[C@H](CC(C)C)C(=O)N2CCC[C@H]2C(=O)O[C@@H]1C | 0.4 |
| CC(=O)N1CCC[C@H]1C(=O)N(C)[C@@H](CC(C)C)C(=O)N[C@@H]1C(=O)N[C@@H](CC(C)C)C(=O)N[C@H](CC(C)C)C(=O)N(C)[C@H](CC(C)C)C(=O)N(C)[C@@H](C)C(=O)N[C@@H](CC(C)C)C(=O)N2CCC[C@@H]2C(=O)O[C@@H]1C | 1.1 |
| CC(=O)N1CCC[C@@H]1C(=O)N(C)[C@H](CC(C)C)C(=O)N[C@@H]1C(=O)N[C@H](CC(C)C)C(=O)N(C)[C@H](CC(C)C)C(=O)N(C)[C@H](CC(C)C)C(=O)N(C)[C@H](C)C(=O)N[C@@H](CC(C)C)C(=O)N2CCC[C@H]2C(=O)O[C@@H]1C | 2 |
| CC(=O)N1CCC[C@H]1C(=O)N(C)[C@@H](CC(C)C)C(=O)N[C@@H]1C(=O)N[C@H](CC(C)C)C(=O)N[C@H](CC(C)C)C(=O)N(C)[C@H](CC(C)C)C(=O)N[C@H](C)C(=O)N[C@@H](CC(C)C)C(=O)N2CCC[C@H]2C(=O)O[C@@H]1C | 0.48 |
| CC(=O)N1CCC[C@H]1C(=O)N(C)[C@@H](CC(C)C)C(=O)N[C@@H]1C(=O)N[C@@H](CC(C)C)C(=O)N[C@@H](CC(C)C)C(=O)N(C)[C@@H](CC(C)C)C(=O)N[C@@H](C)C(=O)N[C@@H](CC(C)C)C(=O)N2CCC[C@H]2C(=O)O[C@@H]1C | 0.85 |

A selection of 2 entries from above:

| compound | PAMPA (10^-6 cm/s) |
|---|---|
| CC(=O)N1CCC[C@H]1C(=O)N(C)[C@H](CC(C)C)C(=O)N[C@@H]1C(=O)N[C@@H](CC(C)C)C(=O)N(C)[C@H](CC(C)C)C(=O)N(C)[C@@H](CC(C)C)C(=O)N(C)[C@@H](C)C(=O)N[C@H](CC(C)C)C(=O)N2CCC[C@H]2C(=O)O[C@@H]1C | 2.2 |
| CC(=O)N1CCC[C@H]1C(=O)N(C)[C@@H](CC(C)C)C(=O)N[C@@H]1C(=O)N[C@@H](CC(C)C)C(=O)N(C)[C@@H](CC(C)C)C(=O)N(C)[C@@H](CC(C)C)C(=O)N(C)[C@@H](C)C(=O)N[C@@H](CC(C)C)C(=O)N2CCC[C@H]2C(=O)O[C@@H]1C | 0.66 |

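The data file gives no further conditions (lipid, pH, time, direction or concentration), and values from different papers need not be comparable. The list need not hold all peptides of the study. Entries at the database's floor value (log10 P of -10) are not listed.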